Screens: PubChem BioAssay, ICCB-Longwood Screening Facility, Harvard Medical School
Most compounds without a hit are left out; they make up all but 0.46% or so of the library.
HCMV NEC inh = disrupts HCMV UL50-UL53 complex binding; HTRF UL50-UL53 interaction, normalized percent inhibition; inhibition, % (concentration not given with the values); actives 0.15% (n = 190,000); in the data active = inhibition above about 27%, passing the limit was not always enough
GIV-Gai inh = inhibitors of GIV peptide binding to Galpha-i3, primary screen, biochemical, fluorescence polarization, FITC-GIV GBA peptide, rat Galphai3. Guanine nucleotide-binding protein G(i) subunit alpha-3 (Rattus norvegicus), P08753. 90 min; stronger effect = lower value; scaled: aluminum fluoride 0%, vehicle 100%. percent of control (FP), % (test concentration not listed). hit rate 0.42% among 210,000. AID 1224905, 2016;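 active = replicate mean at 85% of control or lower, very high polarization wells dropped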;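 note: wells of about 15 µL received 100 nL stock; the first replicate is given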
GIV-Gai FP conf = GIV-Galpha-i3 inhibition, FP confirmation | FITC-GIV peptide binding to Galphai3, fluorescence polarization; active compounds read low | AID 1259350 | fluorescence polarization, mP at 100 µM | shares compounds with GIV-Gai inh | actives 38% (n = 580);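 active = inhibition score of 15 or more, meaning 100 minus mean polarization as percent of control over three replicates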;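 also: lower mP means peptide displaced from Galphai3 so more inhibition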
GIV-Gai AS conf = GIV-Galpha-i3 inhibition, AlphaScreen confirmation; AlphaScreen counts at 100 µM; AlphaScreen Galphai3-GIV binding, purified proteins, 90 min; active compounds read low; shares compounds with GIV-Gai inh; actives 39% (n = 580); AID 1259351;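 active = inhibition score at or above a set limit, where the score is 100 minus the three-replicate mean percent of control signal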
An asterisk follows results filed as active; x = not tested or not shown.

Amino acid sequences for entries named in this document (tags omitted).
Guanine nucleotide-binding protein G(i) subunit alpha-3 (Rattus norvegicus), P08753, UniProt P08753, whole entry, looked up: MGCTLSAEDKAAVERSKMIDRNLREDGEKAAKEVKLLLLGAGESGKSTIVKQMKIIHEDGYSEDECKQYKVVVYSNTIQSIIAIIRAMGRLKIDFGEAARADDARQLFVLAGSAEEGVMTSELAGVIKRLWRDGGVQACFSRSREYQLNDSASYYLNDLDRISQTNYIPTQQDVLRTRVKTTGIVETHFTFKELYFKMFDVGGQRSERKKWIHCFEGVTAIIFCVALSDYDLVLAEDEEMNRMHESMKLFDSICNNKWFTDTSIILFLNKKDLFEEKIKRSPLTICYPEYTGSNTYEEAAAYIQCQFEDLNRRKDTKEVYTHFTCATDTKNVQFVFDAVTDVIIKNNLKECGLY

Letter code – A = HCMV NEC inh; B = GIV-Gai inh; C = GIV-Gai FP conf; D = GIV-Gai AS conf
molecule: COC(=O)c1ccc(N2N=C(C)/C(=C/c3ccc(-c4cccc(C(=O)O)c4)o3)C2=O)cc1
  A: -20.0	B: 85.6	C: 56.2	D: 18724*

molecule: CCOC(=O)c1cccc(-c2ccc(/C=C3\C(=O)N(c4cccc(C(=O)O)c4)N=C3C)o2)c1
  A: -26.9	B: 92.9	C: x	D: x

molecule: O=S(=O)(c1ccc2ccccc2c1)N1CCN(c2ccc(F)cc2)CC1
  A: -4.1	B: x	C: x	D: x

molecule: CCOC(=O)c1c(NC(=O)c2nc(S(=O)(=O)CC)ncc2Cl)sc2c1CCCC2
  A: -1.5	B: 96.9	C: x	D: x

molecule: CCCS(=O)(=O)c1ncc(Cl)c(C(=O)Nc2sc3c(c2C(=O)OCC)CCCC3)n1
  A: 7.3	B: 75.9*	C: 62.4	D: 44265

molecule: COc1ccc(NC(=O)CCc2c(C)nn(-c3ccc4nncn4n3)c2C)c(OC)c1
  A: x	B: 103.3	C: x	D: x

molecule: NC1=CC(=O)CCC1
  A: -7.1	B: x	C: x	D: x

molecule: O=C(Nc1cccc2nsnc12)c1nc2ccccc2nc1N1CCCC1
  A: -37.0	B: 99.7	C: x	D: x

molecule: O=C(Nc1cccc2nsnc12)c1nc2ccccc2nc1N1CCOCC1
  A: -26.4	B: 28.4*	C: 69.4	D: 40962

molecule: CCCOc1ccc(CNC(=O)C(NS(=O)(=O)c2cccs2)C(C)C)cc1 (stereo unspecified)
  A: x	B: 84.5*	C: 81.8	D: 35946

The final four compounds of the part before are carried over, then new ones follow:
Letter code – A = HCMV NEC inh; B = GIV-Gai inh; C = GIV-Gai FP conf; D = GIV-Gai AS conf
molecule: NC1=CC(=O)CCC1
  A: -7.1	B: x	C: x	D: x

molecule: O=C(Nc1cccc2nsnc12)c1nc2ccccc2nc1N1CCCC1
  A: -37.0	B: 99.7	C: x	D: x

molecule: O=C(Nc1cccc2nsnc12)c1nc2ccccc2nc1N1CCOCC1
  A: -26.4	B: 28.4*	C: 69.4	D: 40962

molecule: CCCOc1ccc(CNC(=O)C(NS(=O)(=O)c2cccs2)C(C)C)cc1 (stereo unspecified)
  A: x	B: 84.5*	C: 81.8	D: 35946

molecule: CC(C)C(NS(=O)(=O)c1cccs1)C(=O)NCc1cccnc1 (stereo unspecified)
  A: 4.5	B: 105.5	C: x	D: x

molecule: Cc1ccc(S(=O)(=O)NCCc2ccccc2)c2nsnc12
  A: x	B: 103.8	C: x	D: x

molecule: CCCc1cc2c(=O)c(-c3ccccn3)coc2cc1O
  A: -21.4	B: x	C: x	D: x

molecule: COc1cccc(-c2nn3c(CSc4ccccc4)nnc3s2)c1
  A: 0.4	B: 112.2	C: x	D: x

molecule: O=C1NC(=S)NC(=O)C1=Cc1ccc(OCc2ccc(C(=O)O)cc2)c(Br)c1
  A: -19.5	B: 85.5	C: 10.6*	D: 2330*

molecule: O=C(O)COc1ccc(/C=C2\C(=O)NC(=S)N(c3ccc(Cl)cc3)C2=O)cc1Br
  A: -29.5	B: 73.0*	C: 33.9*	D: 55572

molecule: O=C(O)COc1ccc(/C=C2\C(=O)NC(=S)N(c3ccc(F)cc3)C2=O)cc1Br
  A: -33.2	B: 91.8	C: x	D: x

molecule: COc1cc(/C=C2\C(=O)NC(=O)N(C)C2=O)ccc1OCc1ccc(C(=O)O)cc1
  A: 0.3	B: 106.6	C: x	D: x

molecule: Cc1noc2c1C(c1ccccc1F)C1=C(CC(c3ccc(Cl)cc3)CC1=O)N2 (stereo unspecified)
  A: -14.9	B: 106.5	C: x	D: x

molecule: O=C(NC1CCCCC1)c1sc(=S)n2c1[nH]c(=O)c1ccccc12
  A: -42.9	B: 100.5	C: x	D: x

Further records:
mol | HCMV NEC inh | GIV-Gai inh | GIV-Gai FP conf | GIV-Gai AS conf
O=C(NCCc1ccccc1)c1sc(=S)n2c1[nH]c(=O)c1ccccc12 | x | 86.4 | 65 | 13551*
CC(=O)Nc1ccc(C2=N/C(=C/c3cc(Br)cs3)C(=O)O2)cc1 | -12.6 | 92.7 | 68.1 | 42375
O=C1OC(c2ccc(Cl)c([N+](=O)[O-])c2)=N/C1=C\c1cc(Br)cs1 | x | 110.4 | x | x
O=C1NC(=S)SC1CNc1ccccc1 (stereo unspecified) | 8.9 | x | x | x
CCOc1ccc(Nc2c3c4c(cccc4[nH]c2=O)C(=O)c2ccccc2-3)cc1 | -30.0 | 32.1* | 28* | 39358
COc1ccc(Nc2c3c4c(cccc4n(C)c2=O)C(=O)c2ccccc2-3)cc1 | x | 103.3 | x | x
CCc1nnc(-c2ccc(S(=O)(=O)N3CCCC(C)C3)o2)o1 (stereo unspecified) | x | 108.5 | x | x
CC1=NN(c2ccc3c(S(=O)(=O)O)cc(S(=O)(=O)O)cc3c2)C(=O)C1 | x | 51.2* | 43.3* | 4060*
CC1=NN(c2ccc(N)cc2)C(=O)C1 | 23.7 | 95.4 | x | x
Cc1[nH]c(C)c(S(=O)(=O)N2CCC(C(=O)Nc3ccc4c(c3)OCCO4)CC2)c1C(=O)N1CCCC1 | -23.3 | 104.1 | x | x
Cc1cc(N2CCOCC2)n2nc(C)c(-c3ccc(F)cc3)c2n1 | -24.1 | 110.3 | x | x
Cc1ccc(-c2c(C(F)(F)F)nn3c(N4CCN(C)CC4)cc(C)nc23)cc1 | -16.8 | 96.7 | x | x
Cc1cc(N2CCOCC2)n2nc(C(F)(F)F)c(-c3ccc(Cl)cc3)c2n1 | 1.6 | 87.8 | 66.2 | 42837
Cc1ccc(-c2c(C(F)(F)F)nn3c(-n4nc(C)cc4C)cc(C)nc23)cc1 | 0.4 | 92.7 | 64.8 | 45290
CC(=O)C1=NN(c2cccc(Cl)c2)C2(S1)SC(c1ccc(C)cc1)(c1ccc(C)cc1)c1ccccc12 (stereo unspecified) | x | 105.2 | x | x
COc1ccc2scc(N3CCN(CCc4ccccc4)CC3)c(=O)c2c1 | -16.7 | 103.9 | x | x
O=C1CC(=O)c2ccc3c4c(ccc1c24)C(=O)CC3=O | -46.5 | 74.2* | 53.2* | 2272*
Nc1ccc2c(c1)CCC2=O | -20.9 | 144.5 | x | x
COc1ccc(-c2cc3c(S(=O)(=O)c4ccccc4)cc(NC(C)=O)cc3n2C)cc1 | 3.9 | 107.8 | x | x
FC(F)(F)c1cccc(-n2cc(-c3ccccc3)c3c(NCCN4CCOCC4)ncnc32)c1 | x | 117.6 | x | x
